Values of other authors in patent publication US10537521B2 (priority 2016, dated 2020).

Amino acid sequences for entries named in this document (tags omitted).
UniProt P35372, whole entry: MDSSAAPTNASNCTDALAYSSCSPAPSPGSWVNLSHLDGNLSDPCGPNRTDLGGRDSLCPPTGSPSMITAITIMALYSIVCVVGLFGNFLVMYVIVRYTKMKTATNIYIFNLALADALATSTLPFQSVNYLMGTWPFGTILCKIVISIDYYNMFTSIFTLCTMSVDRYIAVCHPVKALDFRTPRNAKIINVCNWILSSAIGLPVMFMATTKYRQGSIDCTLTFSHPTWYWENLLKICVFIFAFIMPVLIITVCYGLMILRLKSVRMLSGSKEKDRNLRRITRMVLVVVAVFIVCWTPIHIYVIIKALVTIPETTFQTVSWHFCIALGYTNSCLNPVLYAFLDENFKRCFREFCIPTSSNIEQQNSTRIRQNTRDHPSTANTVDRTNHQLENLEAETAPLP

What was measured:
μ-opioid [1] = target: T1, μ-opioid (Homo sapiens, UniProt P35372); conditions: cited from earlier work
μ-opioid [2] = target: T1, μ-opioid; conditions: cited from earlier work; remark: listed apart in the source

Structure (SMILES) | μ-opioid activity (μ-opioid [1]) | affinity to the μ opioid receptor compared with tramadol (μ-opioid [2])
COc1cccc([C@@]2(O)CCCC[C@@H]2CN(C)C)c1 [(+)-Tramadol] | weak μ-opioid activity | –
CN(C)C[C@H]1CCCC[C@]1(O)c1cccc(O)c1 [O-desmethyltramadol] | – | higher affinity
